Test results published in patent publication US20150309029.

Columns and labels:
[1] = target: GST-H-Ras (Glutathione S-transferase-H-Ras)
[2] = target: His-H-Ras (purified from E. coli C41)

B1: recombinant human active Gsk3β protein (protein)
chain: MSGRPRTTSFAESCKPVQQPSAFGSMKVSRDKDGSKVTTVVATPGQGPDRPQEVSYTDTKVIGNGSFGVVYQAKLCDSGELVAIKKVLQDKRFKNRELQIMRKLDHCNIVRLRYFFYSSGEKKDEVYLNLVLDYVPETVYRVARHYSRAKQTLPVIYVKLYMYQLFRSLAYIHSFGICHRDIKPQNLLLDPDTAVLKLCDFGSAKQLVRGEPNVSYICSRYYRAPELIFGATDYTSSIDVWSAGCVLAELLLGQPIFPGDSGVDQLVEIIKVLGTPTREQIREMNPNYTEFKFPQIKAHPWTKVFRPRTPPEAIALCSRLLEYTPTARLTPLEACAHSFFDELRDPNVKLPNGRDTPALFNFTTQELSSNPPLATILIPPHARIQAAASTPTNATAASDANTGDRGQTNNAASASASNST
in vitro kinase assay, 32P autoradiography [1]: H-Ras was strongly phosphorylated by Gsk3β | in vitro kinase assay, 32P autoradiography [2]: H-Ras was strongly phosphorylated by Gsk3β
